In PubChem BioAssay AID651636 (Sanford-Burnham Center for Chemical Genomics, 2012):
This is a selection; strong and weak results do not stand in their true shares. The source made the active and inactive calls. No stated cut-off is given here; in the data, active means inhibition above about 38%; inactive means the rest.

Sequences of proteins named here, by UniProt entry; tags and fusion partners are left off.
UniProt P32249, whole entry, looked up: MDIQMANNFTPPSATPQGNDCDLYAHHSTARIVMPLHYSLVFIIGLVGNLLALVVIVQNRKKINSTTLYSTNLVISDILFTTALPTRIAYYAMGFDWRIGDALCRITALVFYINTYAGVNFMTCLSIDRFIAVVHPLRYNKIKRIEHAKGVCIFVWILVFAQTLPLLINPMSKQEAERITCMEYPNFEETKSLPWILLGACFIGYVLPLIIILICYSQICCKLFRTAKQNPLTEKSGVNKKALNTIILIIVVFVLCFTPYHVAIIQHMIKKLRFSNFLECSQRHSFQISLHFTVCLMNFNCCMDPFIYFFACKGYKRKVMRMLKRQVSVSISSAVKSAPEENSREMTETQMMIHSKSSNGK

What follows are compounds tested against G-protein coupled receptor 183 (Homo sapiens) (UniProt P32249) (assay: EBI2 receptor antagonists, beta-arrestin recruitment, primary screen, cell-based, luminescence, 7a,25-OHC stimulation, uHTS (AID 651636;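 further: enzyme fragment complementation signal reports receptor beta-arrestin coupling in cells; 0% = agonist plus DMSO wells and 100% = wells without agonist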)). Conditions: 7a,25-OHC stimulated, at 5 µM, stronger effect = higher value.

| SMILES | inhibition |
| --- | --- |
| Nc1cccc2c([As](=O)(O)O)cccc12 | inactive: -0.669% |
| Cc1cccc(OCC(=O)OC2CN3CCC2CC3)c1 (configuration not stated) | inactive: -9.54% |
| O=[As](O)(c1cccc(O)c1)c1cccc(O)c1 | inactive: -8.99% |
| CS(=O)(=O)c1ccc(Cl)c(NC(=O)COC(=O)C(O)(c2ccccc2)c2ccccc2)c1 | inactive: 0.393% |
| O=[As](O)(O)c1cccnc1 | inactive: 1.02% |
| COc1cc(C(=O)NCC2(N3CCOCC3)CCCCC2)cc(Cl)c1OC(C)C | inactive: 2.81% |
| O=C(OC1CN2CCC1CC2)c1ccc(Cl)cc1 (configuration not stated) | inactive: 2.53% |
| CN(C(=O)Cc1ccc(Cl)c(Cl)c1)[C@H]1CC[C@@]2(CCCO2)C[C@@H]1N1CCCC1 | inactive: 1.31% |
| O=[N+]([O-])c1ccc2c(c1)nnn2O | inactive: -11.8% |
| CN(C)C(=O)c1cc([N+](=O)[O-])cc2c1-c1c(cc([N+](=O)[O-])cc1[N+](=O)[O-])C2=O | inactive: 24.3% |
| CCOP1(=S)c2c(C)nn(CCC#N)c2N=C(c2ccc(F)cc2)N1C (configuration not stated) | inactive: -0.218% |
| CN(C(=O)Cc1ccccc1)[C@@H]1CC[C@]2(CCCO2)C[C@H]1N1CCCC1 | inactive: 2.23% |
| N#CCCN(C(=O)COC(=O)C(O)(c1ccccc1)c1ccccc1)c1ccc(F)cc1 | inactive: -0.919% |
| NC(=O)Nc1ccc([As](=O)(O)O)cc1 | inactive: -1.22% |
| O=C(O)COc1ccc([As](=O)(O)O)cc1[N+](=O)[O-] | inactive: 2.76% |
| Nc1ccccc1[As](=O)(O)c1ccccc1 | inactive: -2.08% |
| CS(=O)(=O)c1cc([N+](=O)[O-])c2no[n+]([O-])c2c1 | inactive: 1.18% |
| O=P(Nc1nccs1)(Oc1ccccc1)Oc1ccccc1 | inactive: 4.01% |
| O=P(Nc1nccs1)(c1ccccc1)c1nc2ccccc2s1 (configuration not stated) | inactive: -5.97% |
| CCOP1(=S)c2c(C)nn(CCC#N)c2N=C(c2ccccc2F)N1C (configuration not stated) | inactive: -10.7% |
| O=[N+]([O-])c1cc([N+](=O)[O-])c(-c2ccn[nH]2)s1 | inactive: 0.706% |
| CC(C)NC(=O)NP(=O)(Oc1ccccc1)Oc1ccccc1 | inactive: -2.13% |
| CCN(CC)C(=S)SC(NC=O)C(Cl)(Cl)Cl (configuration not stated) | inactive: -4.25% |
| O=C(OC1CN2CCC1CC2)c1cccc2[nH]cnc12 (configuration not stated) | inactive: -6.31% |
| COC(=O)C1(C)COP(=O)(N2CCCCCC2)OC1 (configuration not stated) | inactive: 7.41% |
| CC(C)c1ccc(OP(=O)(Nc2ccccn2)Oc2ccccc2F)cc1 (configuration not stated) | inactive: -6.43% |
| ClCCSc1nnc(-c2cccnc2)o1 | inactive: -6.31% |
